# Screening results as filed in PubChem.
# Compounds with a hit are over-represented: about 4.2% of the library has one in this group of screens.
# ALR inh = inhibitors of human ALR sulfhydryl oxidase, primary screen, biochemical, H2O2 detection, HRP-luminol luminescence, single point; 290,000 compounds, 3.8% hits; purified ALR, DTT oxidation; inhibition, % (no concentration beside the values); FAD-linked sulfhydryl oxidase ALR (Homo sapiens), P55789;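 active = mean and each replicate at 75% or more; inconclusive = only one of the two met; inactive = neither met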;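 also: stock transfer was 7.5 nL into about 7.5 µL; 0% = neutral wells and 100% = wells with inactivated enzyme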
# MC4R barr agon = agonists of human melanocortin 4 receptor (MC4R) beta-arrestin; P32245; U2OS MC4R beta-arrestin complementation, luminescence; percent of melanotan II response, DMSO zero; activation, % at 8.9 µM; 360,000 tested, 0.98% active;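 active means activation above a per-plate cutoff, the mean activation of sample wells on that plate plus 3 SD, cut at about 8% in these data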
# MC4R antag cAMP = antagonists of human melanocortin 4 receptor (MC4R) | P32245 | MC4R-expressing cells, MTII-stimulated cAMP, LANCE TR-FRET | inhibition, % at 6.5 µM | 360,000 tested, 0.48% active | AID 540295;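 active means inhibition above its plate's cutoff, the mean of tested wells on that plate plus 3 SD, cut at about 29% in these data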
#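 Material: human MC4R-expressing U2OS cells. Probe or stimulus: Melanotan II challenge. Dosing: 6.5 µM single dose. Times: 30-min compound, 1-h challenge, 1-h detection, room temperature. Technique: TR-FRET with Eu-cAMP and labeled anti-cAMP, 671 nm. Replication: singlicate.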
# HDAC3 inh = human HDAC3 inhibition; recombinant HDAC3, fluorogenic peptide/trypsin coupled, fluorescence; inhibition, % at 8.3 µM; 320,000 tested, 0.15% active; in the data active means inhibition above about 26%, passing the limit was not always enough; inconclusive means no clear call, values can overlap the other calls
# Yeast UUG start = yeast start codon fidelity modulation | S. cerevisiae UUG-firefly luciferase reporter, luminescence/redox ratio | activity score, % at 18.7 µM | hit rate 0.13% among 350,000 | AID 602363;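 active means replicate mean at a twofold rise or more, about +100% in these data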;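 further: firefly luciferase made from a UUG start codon reports start codon fidelity; reporter light over untreated wells divided by growth signal over untreated wells; some hits fall short of that in this replicate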
# NALP1 yeast inh = NALP1 inhibition; S. cerevisiae NALP1/ASC/caspase-1 growth, X-gal OD620, 72 h; 280,000 tested, 0.61% active; inhibition, % at 10 µM; in the data active means inhibition mostly above about 24%, no sharp cut-off; inactive means mostly below about 32%
# Hits are given with their value; . = inactive; ? = inconclusive; / = no result given.
SMILES,ALR inh,MC4R barr agon,MC4R antag cAMP,HDAC3 inh,Yeast UUG start,NALP1 yeast inh
Cc1c(OC(C)C(=O)N[C@H](C(=O)O)c2ccccc2)ccc2c3c(c(=O)oc12)CCCC3 (stereo not given in full),96,.,.,.,.,.
Cc1c(Cc2ccccc2)c(=O)oc2c(C)c(OC(C)C(=O)N[C@@H](Cc3ccccc3)C(=O)O)ccc12 (stereo not given in full),97,.,.,.,.,.
Cc1cccc(NC(=O)Nc2ccc3c(c2)C(=O)N(C)[C@@H]2CC[C@H](CC(=O)O)O[C@@H]2CO3)c1,/,/,/,/,.,/
O=C(C[C@@H]1C=C[C@@H](NS(=O)(=O)c2cccc(F)c2)[C@H](CO)O1)NCc1ccc2c(c1)OCO2,/,/,/,/,.,/
CO[C@H]1CN(C)C(=O)c2cc(NC(=O)c3ccc(F)cc3)ccc2OC[C@@H](C)N(C(C)=O)C[C@H]1C,/,/,/,/,.,/
Cc1ccc(N=C(NO)c2nonc2N)c(C)c1,.,.,.,.,/,.
Cc1ccc(N=C(NO)c2nonc2N)cc1,92,.,.,.,.,.
Cc1cccc(NC(=O)CSc2nc3sc(C)cc3c(=O)n2C)c1,/,.,.,/,.,/
C=CCn1c(SCC(=O)Nc2ccc(O)cc2)nc2sc(CC)cc2c1=O,97,.,.,.,.,.
Cc1cc2c(=O)n(C)c(SCC(=O)Nc3cccc(O)c3)nc2s1,99,.,.,.,.,.
C=CCn1c(SCC(=O)Nc2cccc3ccccc23)nc(O)c(CC)c1=O,98,.,.,.,.,.
C/C=C/c1ccc2c(c1)O[C@@H](CN(C)C(=O)CN(C)C)[C@H](C)CN([C@H](C)CO)S2(=O)=O,/,/,/,/,.,/
O=C(CN1C(=O)S/C(=C\c2ccccc2)C1=O)NCCCn1ccnc1,.,.,.,.,.,.
CC(C)c1ccc(/C=C2\SC(=O)N(CC(=O)NCCCn3ccnc3)C2=O)cc1,99,.,.,.,.,.
C[C@H](CO)N1C[C@H](C)[C@H](CN(C)C(=O)Cc2cccnc2)Oc2cc(C3=CCCCC3)ccc2S1(=O)=O,/,/,/,/,.,/
COc1ccc(N2CCN(C(CNC(C)=O)c3ccc4c(c3)OCO4)CC2)cc1 (stereo not given),88,.,.,.,.,.
O=C(NCCCO)C(=O)NCC(c1ccc2c(c1)OCO2)N1CCN(c2ccc(F)cc2)CC1 (stereo not given),.,.,.,.,.,.
COc1ccc(N2CCN(C(CNC(C)=O)c3ccco3)CC2)cc1 (stereo not given),?,.,.,.,/,.
COc1ccc(N2CCN(C(CNC(=O)CC(C)(C)C)c3ccc4c(c3)OCO4)CC2)cc1 (stereo not given),82,.,.,.,.,.
CCCC#Cc1ccc2c(c1)O[C@H](CN(C)C(=O)c1ccccc1)[C@H](C)CN([C@H](C)CO)S2(=O)=O,/,/,/,/,.,/
CC(C)NC(=O)N[C@H]1C=C[C@H](CC(=O)NCCCN(C)C)O[C@@H]1CO,/,/,/,/,.,/
COc1ccc(Nc2nc(Nc3ccc(OC)cc3)nc(-n3[nH]c(=O)c(C)c3C)n2)cc1,84,.,.,.,.,.
CCn1c(=O)n(CC)c2cc(N)ccc21,98,.,.,.,/,.
CCn1c(C)nc2cc(N)ccc21,98,.,.,.,/,/
Cc1nc2cc(N)ccc2n1C1CCCCC1,100,.,.,.,/,.
SMILES,ALR inh,MC4R barr agon,MC4R antag cAMP,HDAC3 inh,Yeast UUG start,NALP1 yeast inh
CCn1c(C)nc2cc(OC)ccc21,.,.,.,.,.,.
CC(C)C#Cc1ccc2c(c1)O[C@H](CN(C)C(=O)C1CCCCC1)[C@@H](C)CN([C@@H](C)CO)S2(=O)=O,/,/,/,/,.,/
Cc1nnc(SCc2ccc([N+](=O)[O-])cc2)[nH]c1=O,.,.,.,.,/,.
Cc1nnc(SCc2cccc([N+](=O)[O-])c2)[nH]c1=O,99,.,.,.,/,.
Cc1ccccc1CSc1nnc(C)c(=O)[nH]1,91,.,.,.,.,.
Fc1ccc(CN2C3=NCCN3c3ccccc32)cc1,95,.,.,.,/,/
CCCCCN1C2=NCCN2c2ccccc21,96,.,.,.,.,.
Cc1ccccc1CN1C2=NCCN2c2ccccc21,99,.,.,.,.,.
CC(C)C#Cc1cnc2c(c1)C(=O)N([C@H](C)CO)C[C@H](C)[C@@H](CN(C)C(=O)c1ccc3c(c1)OCO3)O2,/,/,/,/,.,/
